These results are taken from patent US11472769B2, “SSAO inhibitors and use thereof” (Eccogene (Shanghai) Co., Ltd., priority 2019, dated 2022).

Chains of the proteins cited; added tags and fusions are not shown.
UniProt Q16853, whole entry: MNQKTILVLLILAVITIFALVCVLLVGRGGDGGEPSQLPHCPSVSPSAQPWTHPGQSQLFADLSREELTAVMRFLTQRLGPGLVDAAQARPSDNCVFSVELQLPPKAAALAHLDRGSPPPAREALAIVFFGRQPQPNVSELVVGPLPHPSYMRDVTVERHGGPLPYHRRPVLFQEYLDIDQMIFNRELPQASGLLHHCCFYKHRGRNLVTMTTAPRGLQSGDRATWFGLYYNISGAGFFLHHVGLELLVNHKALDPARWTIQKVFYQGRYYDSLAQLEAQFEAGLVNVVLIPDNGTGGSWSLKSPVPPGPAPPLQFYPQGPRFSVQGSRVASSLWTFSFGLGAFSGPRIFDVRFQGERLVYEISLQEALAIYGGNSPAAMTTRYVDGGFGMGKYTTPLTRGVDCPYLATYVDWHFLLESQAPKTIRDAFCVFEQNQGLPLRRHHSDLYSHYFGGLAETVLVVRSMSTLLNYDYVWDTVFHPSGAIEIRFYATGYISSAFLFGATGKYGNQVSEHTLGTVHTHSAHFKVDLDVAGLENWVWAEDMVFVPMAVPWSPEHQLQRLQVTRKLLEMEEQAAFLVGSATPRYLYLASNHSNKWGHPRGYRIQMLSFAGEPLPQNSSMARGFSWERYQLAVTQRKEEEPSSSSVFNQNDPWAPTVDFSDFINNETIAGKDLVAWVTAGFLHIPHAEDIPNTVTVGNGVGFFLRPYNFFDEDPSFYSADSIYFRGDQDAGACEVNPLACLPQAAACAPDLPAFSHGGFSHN
UniProt P27338, whole entry: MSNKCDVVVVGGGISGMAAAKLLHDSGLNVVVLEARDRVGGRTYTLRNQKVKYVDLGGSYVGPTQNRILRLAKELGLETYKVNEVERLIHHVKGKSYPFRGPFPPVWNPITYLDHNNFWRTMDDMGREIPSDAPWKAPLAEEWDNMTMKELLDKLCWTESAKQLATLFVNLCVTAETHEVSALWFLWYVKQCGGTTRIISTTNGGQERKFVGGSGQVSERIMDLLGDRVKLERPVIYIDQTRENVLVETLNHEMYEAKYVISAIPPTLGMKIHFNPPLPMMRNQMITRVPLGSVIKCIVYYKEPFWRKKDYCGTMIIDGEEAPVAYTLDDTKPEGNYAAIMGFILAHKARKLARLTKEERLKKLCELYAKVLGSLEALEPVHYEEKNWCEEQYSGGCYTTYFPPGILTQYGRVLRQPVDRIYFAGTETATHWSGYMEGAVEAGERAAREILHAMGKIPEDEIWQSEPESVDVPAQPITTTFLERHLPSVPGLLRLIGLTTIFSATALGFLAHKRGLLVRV
UniProt P21397, whole entry: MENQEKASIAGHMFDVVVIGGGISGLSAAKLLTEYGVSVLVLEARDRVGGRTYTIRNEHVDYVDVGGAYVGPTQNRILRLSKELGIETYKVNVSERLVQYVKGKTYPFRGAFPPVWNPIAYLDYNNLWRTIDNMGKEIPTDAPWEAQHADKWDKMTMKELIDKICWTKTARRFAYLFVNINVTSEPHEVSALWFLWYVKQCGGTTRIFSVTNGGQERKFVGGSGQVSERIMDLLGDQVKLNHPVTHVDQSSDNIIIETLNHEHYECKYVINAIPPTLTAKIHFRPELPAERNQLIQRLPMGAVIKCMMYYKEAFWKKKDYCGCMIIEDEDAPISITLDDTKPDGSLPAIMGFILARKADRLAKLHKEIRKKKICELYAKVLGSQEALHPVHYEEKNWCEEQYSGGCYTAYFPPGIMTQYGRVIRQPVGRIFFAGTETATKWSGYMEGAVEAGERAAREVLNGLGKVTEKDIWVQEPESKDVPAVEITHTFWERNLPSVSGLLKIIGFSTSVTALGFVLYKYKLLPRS

SMILES strings stand for the structures. Read-outs that look alike come from different tables or passages of the source.

Common to all, as to format: biochemical
One assay addresses recombinant hSSAO (Homo sapiens (Human), UniProt Q16853). The assay is described as follows: SSAO Activity Assay (MAO-Glo assay kit).
The target of a further assay is recombinant hMAO-B (Homo sapiens (Human), UniProt P27338). Kind of assay: MAO-B activity assay (MAO-Glo assay kit).
The target of the next assay is recombinant hMAO-A (Homo sapiens (Human), UniProt P21397). The assay is described as follows: MAO-A activity assay (MAO-Glo assay kit). The conditions noted are these: read-out: MAO-A Activity (IC50), 40 μM substrate, 30 mins pre-incubation, tested form: HCl.
Setting [1] is: read-out: SSAO Activity (IC50), 40 μM substrate, 30 mins pre-incubation.
Where [2] appears, read: read-out: MAO-B Activity (IC50), 4 μM substrate, 30 mins pre-incubation, tested form: HCl.
Where [3] appears, read: read-out: SSAO Activity (IC50), 40 μM substrate, 30 mins pre-incubation, tested form: HCl.

What is called IC50 is the midpoint of a concentration-inhibition curve. Consider `C[C@@H](CN1CCCCC1=O)CS(=O)(=O)c1ccc(OC/C(=C/F)CN)cc1`, for which the IC50 on recombinant hSSAO (setting [1]) fell in the range of 20 to 100 nM.
For the compound `C[C@H](CN1CCCCC1=O)CS(=O)(=O)c1ccc(OC/C(=C/F)CN)cc1`, at recombinant hSSAO (setting [1]), the IC50 lay in the range of 20 to 100 nM.
Regarding `C[C@H](CN1CCOCC1)CS(=O)(=O)c1ccc(OC/C(=C/F)CN)cc1`, at recombinant hSSAO (setting [1]), the IC50 is 20 to 100 nM.
`CC(C)N1CCC2(CCC(CS(=O)(=O)c3ccc(OC/C(=C/F)CN)cc3)CC2)C1=O` (single isomer, unassigned): the figures for the IC50 on recombinant hMAO-B (setting [2]), at recombinant hMAO-A and at recombinant hSSAO (setting [3]) were over 30000 nM, over 30000 nM and 20 to 100 nM, respectively.
With `CC(CN1CCC2(CCCC2)C1=O)CS(=O)(=O)c1ccc(OC/C(=C/F)CN)cc1` (single isomer, unassigned), the figures for the IC50 at recombinant hMAO-B (setting [2]), at recombinant hMAO-A and on recombinant hSSAO (setting [3]) were under 10000 nM, over 30000 nM and 20 to 100 nM, respectively.
`CC(CN1CCCC1=O)CS(=O)(=O)c1ccc(OC/C(=C/F)CN)cc1` (single isomer, unassigned): the IC50 was over 30000 nM at recombinant hMAO-B (setting [2]); over 30000 nM on recombinant hMAO-A; over 500 nM on recombinant hSSAO (read-out: SSAO Activity (IC50), 40 μM substrate, 30 mins pre-incubation, tested form: HCl, listed as 93 or 94); 20 to 100 nM at recombinant hSSAO (read-out: SSAO Activity (IC50), 40 μM substrate, 30 mins pre-incubation, tested form: HCl, listed as 94 or 93).
For `CC1(C)COC(CS(=O)(=O)c2ccc(OC/C(=C/F)CN)cc2)CO1` (single isomer, unassigned), the IC50 on recombinant hMAO-B (read-out: MAO-B Activity (IC50), 4 μM substrate, 30 mins pre-incubation) was in the range of 10000 to 30000 nM; at recombinant hSSAO (setting [1]), 20 to 100 nM.
Take `NCC(=CF)COc1ccc(S(=O)(=O)CC2CCCO2)cc1` (single isomer, unassigned): on recombinant hSSAO (read-out: SSAO Activity (IC50), 40 μM substrate, 30 mins pre-incubation, listed as 23 or 24), the IC50 fell in the range of 20 to 100 nM.
For `NCC(=CF)COc1ccc(S(=O)(=O)CC2CCOC2)cc1` (single isomer, unassigned), the IC50 at recombinant hSSAO (setting [1]) is 20 to 100 nM.
